The experiment has as its target T1, human DPP-IV (Homo sapiens, UniProt P27487).
T1 construct: purchased Sigma-Aldrich
Briefly: DPP-IV inhibitory activity assay with Gly-Pro-AMC as the substrate. The class given is biochemical. The conditions noted are these: peptides. The method, then: The DPP-IV inhibitory activity assay of the sample was performed using Gly-Pro-AMC as the substrate, as previously described. Briefly, 50 µL Gly-Pro-AMC (0.2 mM) was added to a 40 µL sample (dissolved in 100 mM HEPES buffer) and incubated for 10 min at 37 °C. The reaction was initiated by adding 10 µL DPP-IV enzyme solution (10 U/L). After being incubated for 60 min at 37 °C, the reaction was terminated by adding 100 µL sodium acetate buffer (1 M, pH 4.0). The fluorescence intensity of the mixture was measured with an excitation wavelength of 350 nm and an emission wavelength of 440 nm. The control group used the HEPES buffer instead of the sample. The blank group used the HEPES buffer instead of the sample and DPP-IV enzyme solution. The DPP-IV inhibitory activity of the sample was calculated as follows:(2) DPP-IV inhibitory activity (%)=(Ac− Ab) − (As−Ab)/(Ac−Ab)×100% where As, Ac, and Ab are the intensity of the fluorescence of the sample, control, and blank groups, respectively. The half-maximal inhibitory concentration (IC50) of the sample was calculated according to the DPP-IV inhibition activity against the concentrations of the sample. In addition, the type of inhibition of the sample was obtained from the Lineweaver–Burk equation and double reciprocal plots.

By UniProt entry, the sequences of proteins in these tests, tags left out.
UniProt P27487, whole entry: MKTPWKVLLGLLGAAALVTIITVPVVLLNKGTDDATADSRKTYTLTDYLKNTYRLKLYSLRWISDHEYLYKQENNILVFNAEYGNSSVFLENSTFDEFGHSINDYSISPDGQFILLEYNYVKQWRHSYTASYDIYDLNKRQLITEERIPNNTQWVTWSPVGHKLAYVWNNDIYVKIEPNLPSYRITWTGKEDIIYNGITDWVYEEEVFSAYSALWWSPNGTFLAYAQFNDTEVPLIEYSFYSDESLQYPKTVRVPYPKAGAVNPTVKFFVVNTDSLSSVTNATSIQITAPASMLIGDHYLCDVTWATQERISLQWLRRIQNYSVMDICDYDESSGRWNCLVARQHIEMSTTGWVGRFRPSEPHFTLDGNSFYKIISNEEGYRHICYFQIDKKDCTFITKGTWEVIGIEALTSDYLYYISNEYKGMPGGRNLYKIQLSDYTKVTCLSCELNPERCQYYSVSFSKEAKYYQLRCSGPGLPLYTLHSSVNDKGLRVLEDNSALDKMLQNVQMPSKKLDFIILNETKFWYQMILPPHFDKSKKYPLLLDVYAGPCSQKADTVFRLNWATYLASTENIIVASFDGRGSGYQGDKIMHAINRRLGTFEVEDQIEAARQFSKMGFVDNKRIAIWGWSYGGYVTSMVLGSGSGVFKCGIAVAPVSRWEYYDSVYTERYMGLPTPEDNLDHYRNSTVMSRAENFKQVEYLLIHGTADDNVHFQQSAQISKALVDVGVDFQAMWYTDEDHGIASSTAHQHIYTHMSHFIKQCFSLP

Turning to `CC[C@H](C)[C@H](N)C(=O)N1CCC[C@H]1C(=O)N[C@H](C(=O)O)[C@@H](C)CC` [IPI, reference compound], the IC50 (in general, the point on the concentration scale where inhibition reaches its midpoint) was 5.95 ± 0.91 µM.

Values taken from PMC9141920, “Identification and Characterization of Dipeptidyl Peptidase-IV Inhibitory Peptides from Oat Proteins” (Foods, 2022).
